Source: patent EP4818168A1, “FUSED RING COMPOUND, PHARMACEUTICAL COMPOSITION THEREOF AND USE THEREOF” (priority 2023, dated 2025)

Molecular target: T1, AURKA (Homo sapiens, UniProt O14965)
T1 construct: endogenous in cells; host or cells: Jurkat cells
T1 sequence (O14965 1-403): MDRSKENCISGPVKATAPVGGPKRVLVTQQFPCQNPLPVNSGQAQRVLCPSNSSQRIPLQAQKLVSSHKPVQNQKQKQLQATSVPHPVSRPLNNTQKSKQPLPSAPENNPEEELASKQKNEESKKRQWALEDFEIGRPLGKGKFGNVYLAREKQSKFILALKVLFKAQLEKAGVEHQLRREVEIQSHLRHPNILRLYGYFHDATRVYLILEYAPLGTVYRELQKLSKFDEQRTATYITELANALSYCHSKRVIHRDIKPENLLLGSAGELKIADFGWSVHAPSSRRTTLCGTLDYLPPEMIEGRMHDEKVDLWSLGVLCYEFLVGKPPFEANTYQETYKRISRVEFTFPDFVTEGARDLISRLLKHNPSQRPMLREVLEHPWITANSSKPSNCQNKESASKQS
Assay type: cell-based
Description: WB is a classical biochemical experimental method used to detect the abundance of a target protein in a sample of cells or biological tissue. It relies on specific antigen-antibody binding to detect protein signals from the sample processed by gel electrophoresis: the protein specifically binds to a primary antibody at an epitope; the primary antibody is then conjugated with a secondary antibody to amplify the signal cascade; the signal is read out by chemiluminescent or fluorescent detection. The intracellular protein content is ultimately characterized by the intensity of the optical signals. […] The DC50 value can be calculated by curve fitting of the protein WB exposure signals.
The experimental procedure is as follows: • 1. Seed Jurkat cells into a 12-well plate at 1×10^6 cells/500 µL/well. • 2. Mix the culture medium with the compound to a concentration that is twice the desired final concentration. […] Transfer the cell suspension to a centrifuge tube. Rinse the 12-well plate with PBS and then transfer the PBS from the plate to the same centrifuge tube. Centrifuge at 3000 rpm for 5 min at room temperature. Aspirate the supernatant using a vacuum pump. […] Lyse on ice for 20 min. • 4. Centrifuge the lysed sample at 13000 rpm for 20 min at 4°C. Mix the supernatant with 5× protein loading buffer. Boil at 100°C for 5 min and then cool. Store the denatured protein sample at -20°C. • 5. […] Run electrophoresis at 80 V for 20 min, and then at 120 V constant voltage for 60 min. • 6. Transfer the protein onto a nitrocellulose membrane in an ice bath at 250 mA constant current for 90 min. • 7. […] Incubate with a primary antibody overnight at 4°C. • 9. […] Incubate with a secondary antibody for 1-2 h at room temperature. • 10. […] Expose and image the membrane using a LICOR Odyssey DLx imager.

[1] = 100 nM compound, Jurkat cells, 24 h, Table 1
[2] = 1 µM compound, Jurkat cells, 24 h, Table 1

O=C1CCN(c2cccc(N3CCN(CC#Cc4cccc(Nc5ncc6c(n5)-c5ccc(Cl)cc5C(c5c(F)cccc5F)=NC6)c4)CC3)c2)C(=O)N1 [Compound A98]
Percentage of AURKA Degradation Induced by 100 nM Compound in Jurkat Cells: ++ (key: +: Degradation ≤ 30%; ++: 30% < Degradation ≤ 70%; +++: Degradation > 70%)
Percentage of AURKA Degradation Induced by 1 µM Compound in Jurkat Cells: +++ (key: +: Degradation ≤ 30%; ++: 30% < Degradation ≤ 70%; +++: Degradation > 70%)

COc1cc(Nc2ncc3c(n2)-c2ccc(Cl)cc2C(c2c(F)cccc2OC)=NC3)ccc1C(=O)NC1CC(C#Cc2cccc(N3CCC(=O)NC3=O)c2)C1 (centres unmarked) [Compound A50]
Percentage of AURKA Degradation Induced by 100 nM Compound in Jurkat Cells [1]: +++ (Degradation > 70%)
Percentage of AURKA Degradation Induced by 1 µM Compound in Jurkat Cells [2]: +++ (Degradation > 70%)

O=C1CCN(c2cccc(C#CCN3CCn4c(cnc4-c4ccc(Nc5ncc6c(n5)-c5ccc(Cl)cc5C(c5c(F)cccc5F)=NC6)cc4)C3)c2)C(=O)N1 [Compound A145]
Percentage of AURKA Degradation Induced by 100 nM Compound in Jurkat Cells: ++ (key: +: Degradation ≤ 30%; ++: 30% < Degradation ≤ 70%; +++: Degradation > 70%)
Percentage of AURKA Degradation Induced by 1 µM Compound in Jurkat Cells: ++ (key: +: Degradation ≤ 30%; ++: 30% < Degradation ≤ 70%; +++: Degradation > 70%)

O=C1CCN(c2cccc(C#CC34CC(NC(=O)c5ccc(Nc6ncc7c(n6)-c6ccc(Cl)cc6C(c6c(F)cccc6F)=NC7)cc5)(C3)C4)c2)C(=O)N1 [Compound A76]
Percentage of AURKA Degradation Induced by 100 nM Compound in Jurkat Cells [1]: ++ (30% < Degradation ≤ 70%)
Percentage of AURKA Degradation Induced by 1 µM Compound in Jurkat Cells [2]: ++ (30% < Degradation ≤ 70%)

Read-outs that look alike come from different tables or passages of the source.
